In data set [1] the test system is A549 tumors.
In data set [2] the test system is NCI-H520 tumors.
For data set [3] the following is noted: 275 nmol i.v., 15 min.

From patent US20090180958A1, “Diagnostic and therapeutic agents” (Karyon-CTT Ltd., priority 2005, published 2009) come the findings set out here.

Where two headings read alike, the source gives them in different places.

As for “CH3C(O)-Ala-Arg-Arg-Pro-Lys-Leu-Asp-Gly-Ala-NHCH2CH2S-p-CH2CONH-benzyl-DTPA europium chelate [A48-Eu]”, in data set [1] (A549 tumors, 275 nmol i.v., 15 min), the “accumulation in tumors as compared to normal tissue” value was “accumulated strongly and selectively”. Further, in data set [1] (A549 tumors, Eu content ratio), the tumor-to-muscle ratio was determined as 15.7. In addition, the Eu content in data set [1] (Tumour (A549), 275 nmol i.v. tail vein, 15 min circulation, perfused) amounted to 225 ± 28.6 ng/g; in data set [2] (Tumour (NCI-H520), 275 nmol i.v. tail vein, 15 min circulation, perfused) it was 101 ± 18.1 ng/g; in data set [3] (Brain), 11.3 ± 0.25 ng/g; in data set [3] (Heart), 4.59 ± 1.38 ng/g; in data set [3] (Intestine), 20.7 ± 4.72 ng/g; in data set [3] (Kidney), 1072 ± 295 ng/g. Moreover, the Eu content in data set [3] (Liver) is 144 ± 33.8 ng/g; in data set [3] (Lungs) it was 11.5 ± 4.80 ng/g; in data set [3] (Muscle), 14.3 ± 4.77 ng/g; in data set [3] (Ovaries) it was 30.2 ± 12.7 ng/g; in data set [3] (Spleen) it was 27.7 ± 22.9 ng/g. In addition, the accumulation in tumors result in data set [2] (NCI-H520 tumors, 275 nmol i.v., 15 min) is on record as “significantly selective accumulation”.
